# According to ChEMBL document CHEMBL3734668, “Evaluation of small molecule SecA inhibitors against methicillin-resistant Staphylococcus aureus” (Bioorg Med Chem, 2015):
# Target: T1, Protein translocase subunit SecA 1 (Staphylococcus aureus (strain NCTC 8325)) (UniProt O06446)
# T1 sequence (whole entry): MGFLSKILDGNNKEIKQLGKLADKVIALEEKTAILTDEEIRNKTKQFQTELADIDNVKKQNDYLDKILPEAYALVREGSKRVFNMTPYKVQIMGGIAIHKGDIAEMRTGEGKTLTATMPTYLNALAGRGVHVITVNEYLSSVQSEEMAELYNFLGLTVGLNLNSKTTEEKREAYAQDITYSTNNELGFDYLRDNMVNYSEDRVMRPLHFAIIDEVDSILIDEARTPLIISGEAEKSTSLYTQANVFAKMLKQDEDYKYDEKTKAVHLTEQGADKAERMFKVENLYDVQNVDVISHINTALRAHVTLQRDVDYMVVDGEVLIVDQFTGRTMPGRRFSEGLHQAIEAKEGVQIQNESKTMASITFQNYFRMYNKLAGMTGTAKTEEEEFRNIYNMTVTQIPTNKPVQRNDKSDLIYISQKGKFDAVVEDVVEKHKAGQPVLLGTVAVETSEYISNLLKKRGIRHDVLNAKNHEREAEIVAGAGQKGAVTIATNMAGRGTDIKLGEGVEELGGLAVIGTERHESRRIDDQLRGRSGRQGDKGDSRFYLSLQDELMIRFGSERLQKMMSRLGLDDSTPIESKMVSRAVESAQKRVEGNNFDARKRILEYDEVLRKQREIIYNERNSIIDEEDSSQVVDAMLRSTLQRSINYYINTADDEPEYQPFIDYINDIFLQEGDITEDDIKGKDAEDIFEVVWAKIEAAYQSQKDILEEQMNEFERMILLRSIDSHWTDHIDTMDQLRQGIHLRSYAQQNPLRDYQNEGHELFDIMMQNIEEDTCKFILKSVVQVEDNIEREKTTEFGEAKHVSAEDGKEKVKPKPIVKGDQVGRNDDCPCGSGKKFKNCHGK
# Assay: Non-competitive inhibition of Staphylococcus aureus ATCC 35556 SecA1 liposomal ATPase activity in Xenopus laevis oocytes incubated for 3 hrs measured by Lineweaver-Burk plot analysis
# Format: cell-based
# Procedure, shortened: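 SaSecA1-liposome plus proOmpA co-injected into Xenopus oocytes at varying ATP and inhibitor concentrations, incubated 3 hr at 23 °C, ion current recorded 1 min; n = 9-10. Inhibition mode assessed across ATP levels.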
compound,measurement,value
O=C([O-])c1c(Cl)c(Cl)c(Cl)c(Cl)c1-c1c2cc(I)c(=O)c(I)c-2oc2c(I)c([O-])c(I)cc12.[Na+].[Na+] [ROSE BENGAL SODIUM],inhibition,Active

# Calls of active or inactive are those of the source. The rule behind the calls is not given here.
